Reference: patent publication US20210161997A1, “TREATING DISEASES VIA TARGETED MODULATION OF GENE SIGNALING NETWORKS” (Camp4 Therapeutics Corporation, priority 2018, published 2021)

Legend:
ANGPTL3 = assay: RNA-seq of ANGPTL3 expression in compound-treated primary human hepatocytes; type: cell-based; settings: additional compounds (Table 13)
Procedure: (§1) Human hepatocytes were obtained from two donors from Massachusetts General Hospital, namely MGH54 and MGH63, and one donor from Lonza, namely HUM4111B. Cryopreserved hepatocytes were cultured in plating media for 16 hours, transferred to maintenance media for 4 hours. Cultured on serum-free media for 2 hours, then a compound was added. The hepatocytes were maintained on the serum-free media for 16 hours prior to gene expression analysis. Primary human hepatocytes were stored in the vapor phase of a liquid nitrogen freezer (about −130° C.).
Human hepatocytes cultured as described above were plated in 24-well format, adding 375,000 cells per well in a volume of 500 ul plating medium. Four hours before treatment, cells were washed with PBS and the medium was changed to either: fresh maintenance medium (complete) or modified maintenance medium.
Compound stocks were prepared at 1000× final concentration and added in a 2-step dilution to the medium to reduce risk of a compound precipitating out of solution when added to the cells, and to ensure reasonable pipetting volumes. […]
(§2) For mRNA isolation and library prep, the NEBNext Poly(A) mRNA Magnetic Isolation Module and Directional Prep kit was used. RNA isolated from cells above was quantified, and prepared in […] of each sample in 50 μl of nuclease-free water. […]

UGT1A1 = assay: RNA-seq of UGT1A1 expression in compound-treated primary human hepatocytes; type: cell-based
Procedure: as §1
Human hepatocytes cultured as described above were plated in 24-well format, adding 375,000 cells per well in a volume of 500 ul plating medium. Four hours before treatment, cells were washed with PBS and the medium was changed to either: fresh maintenance medium (complete) or modified maintenance medium. […]
as §2
Standard QC were applied (read integrity, mapping statistics, library complexity, fragment bias) to remove unsatisfactory samples. […] RNA-seq signals were also normalized by read depth and visualized using the UCSC browser. […]

## CC1(C)CCC(C)(C)c2cc(C(=O)Nc3ccc(C(=O)O)cc3)ccc21 [AM 580]
ANGPTL3
  ANGPTL3-LINEAR FOLD CHANGE: 0.3737

## Ibutilide Fumarate
ANGPTL3
  ANGPTL3-LINEAR FOLD CHANGE: 0.4538

## CCOC(=O)c1cncn1[C@H](C)c1ccccc1 [Etomidate]
UGT1A1
  UGT1A1 Fold Change (Log2): 0.56 Log2
